Laboratory results from article PMC9715946, “Bioenhancing effects of piperine and curcumin on triterpenoid pharmacokinetics and neurodegenerative metabolomes from Centella asiatica extract in beagle dogs” (Scientific Reports, 2022).

Assay: Pharmacokinetic study: plasma triterpenoids by LCMS, non-compartmental analysis
Assay type: in vivo, beagle dogs
Conditions: for AUC0–24 / AUC0–inf / CL / Cmax / MRT / Vd / Half-life / Tmax: plasma; for AUC0–24 / AUC0–inf / CL / Cmax / MRT / Vd: mean ± SD; for Half-life / Tmax: median (IQR)
Excerpt: The proposed animal experiment was approved by the Institutional Animal Care and Use Committee of the Chulalongkorn University Laboratory Animal Centre (CULAC), Chulalongkorn University, Bangkok, Thailand (Protocol number 2073029, Approval date: […] The dogs were fed with a normal dog diet (Beauty Pro, Nippon Pet Food Co. Ltd.) once a day and water ad libitum. Two groups of four dogs were randomly used with a 2-week washout period. […] After receiving the test substances, the dogs were transferred to a metabolic cage for 48 h for the collection of urine and faeces. All animal procedures were performed in accordance with the ethical principles, regulations, and guidelines for the use of animals (National Research Council of Thailand, 2015). This study was conducted in compliance with the ARRIVE guidelines. Four experimental groups received the oral test compound once daily for seven consecutive days, as follows: ([…] 20 […] 20 mg/kg + piperine 20 mg/kg; ([…] 20 mg/kg + curcumin 20 mg/kg; and (iv) […] 20 mg/kg + piperine 20 mg/kg + curcumin 20 mg/kg. The test substance powders received from the suppliers were packed into gelatine capsule, and the dogs were orally administered two to four capsules in the morning, according to the number of test substances required in the experimental plan. Blood samples (2-3 mL) were withdrawn from the cephalic or saphenous vein using an IV catheter and placed in heparinised tubes. […] The pre-dose and 24 h post-dose blood chemistry parameters were determined by the Small Animal Hospital, Faculty of Veterinary Science, Chulalongkorn University for all dogs, in order to monitor the health status of the dogs. […] All biological samples were kept at - 80 °C until required for analysis. Where the concentration of the samples exceeded the linear calibration curve, blank matrices were used to dilute the sample before protein precipitation. Methanol was used to extract the major triterpenoids from the biological samples for LCMS analysis. In brief, 50 μL of the biological sample was added to 200 μL methanol containing glycyrrhizin and glycyrrhetinic acid as internal standards. The mixture was then centrifuged at 12,000g for 10 min at 4 °C to collect the supernatant, and 10 μL of the supernatant was injected into the LCMS system to measure the concentration of the targeted analytes. […] A Synergi Fusion-RP C18 column (Phenomenex Inc.) was selected as the stationary phase and maintained at 40 °C in the column oven. […] The lower limit of quantification (LLOQ) of each of the compounds in this study ranged from 1.00 to 10.00 μg/L, according to the compound. After oral administration, pharmacokinetic parameters were determined by PK solution software version 2.0 (Submit Research Services, USA.) using non-compartmental analysis. The maximum plasma concentration (Cmax) and time to reach maximum plasma concentration (Tmax) were calculated directly from the concentration-time curves. The area under the curve from time 0-24 h (AUC0-24) was determined by the trapezoidal method and extrapolated to time infinity by the equation AUC0-inf = AUC0-24 + (Clast/kel), where Clast is the last measurable plasma concentration and kel is the elimination rate constant. The rate of […] was equal to - 2.303 × slope. The mean residence time (MRT) was calculated as AUMC0-inf/AUC0-inf, where AUMC0-inf is the area under the first moment curve. The volume of distribution (Vd) was equivalent to dose/C0, where C0 is the concentration of drug measured in plasma at time zero. The total clearance (CL) was equal to dose/AUC0-inf, and the elimination half-life was determined by 0.693/kel. […] The difference in blood chemistry parameters pre-dose and post-dose was compared using Student's t test. SPSS version 22.0 (IBM Corp.) was used to determine statistically significant differences between the experimental groups. […]

[1] = after 20 mg/kg Centell-S + 20 mg/kg curcumin p.o., Day 1
[2] = after 20 mg/kg Centell-S + 20 mg/kg curcumin p.o., Day 7
[3] = after 20 mg/kg Centell-S + 20 mg/kg piperine + 20 mg/kg curcumin p.o., Day 1
[4] = after 20 mg/kg Centell-S + 20 mg/kg piperine + 20 mg/kg curcumin p.o., Day 7
[5] = after 20 mg/kg Centell-S + 20 mg/kg piperine p.o., Day 1
[6] = after 20 mg/kg Centell-S + 20 mg/kg piperine p.o., Day 7

asiaticoside
Time to reach maximum plasma concentration (after oral dosing, day 1): 1 to 2 h | Time to reach maximum plasma concentration (day 7, in most tested groups): 2 to 4 h | AUC0–24 [1]: 1245 ± 429 ng·h/mL | AUC0–inf [1]: 1452 ± 613 ng·h/mL | CL [1]: 71.2 ± 64.7 mL/min/kg | Cmax [1]: 217.38 ± 61.62 ng/mL | MRT [1]: 19.20 ± 11.02 h | Vd [1]: 98.90 ± 21.70 L/kg | Half-life [1]: 20.79 (19.63) h | Tmax [1]: 1.50 (1.50) h | AUC0–24 [2]: 1379 ± 224 ng·h/mL | AUC0–inf [2]: 1723 ± 552 ng·h/mL | CL [2]: 67.8 ± 24.3 mL/min/kg | Cmax [2]: 226.13 ± 63.89 ng/mL | MRT [2]: 33.30 ± 13.98 h | Vd [2]: 107.53 ± 42.64 L/kg | Half-life [2]: 17.32 (5.92) h | Tmax [2]: 2.00 (0.00) h | AUC0–24 [3]: 1638 ± 263 ng·h/mL | AUC0–inf [3]: 1941 ± 315 ng·h/mL | CL [3]: 67.7 ± 13 mL/min/kg | Cmax [3]: 314.45 ± 38.90 ng/mL | MRT [3]: 27.30 ± 5.11 h | Vd [3]: 109.35 ± 52.20 L/kg | Half-life [3]: 13.83 (5.75) h | Tmax [3]: 1.50 (1.00) h | AUC0–24 [4]: 1536 ± 180 ng·h/mL | AUC0–inf [4]: 1599 ± 147 ng·h/mL | CL [4]: 70.2 ± 6.5 mL/min/kg | Cmax [4]: 376.03 ± 23.99 ng/mL | MRT [4]: 19.33 ± 3.74 h | Vd [4]: 107.10 ± 7.81 L/kg | Half-life [4]: 9.45 (2.53) h | Tmax [4]: 0.75 (0.75) h | AUC0–24 [5]: 3146 ± 288 ng·h/mL | AUC0–inf [5]: 5687 ± 428 ng·h/mL | CL [5]: 17 ± 8.67 mL/min/kg | Cmax [5]: 441.53 ± 13.15 ng/mL | MRT [5]: 61.87 ± 34.24 h | Vd [5]: 63.45 ± 10.99 L/kg | Half-life [5]: 19.35 (15.64) h | Tmax [5]: 2.00 (0.25) h | AUC0–24 [6]: 1812 ± 500 ng·h/mL | AUC0–inf [6]: 2144 ± 623 ng·h/mL | CL [6]: 33.7 ± 17 mL/min/kg | Cmax [6]: 380.10 ± 72.27 ng/mL | MRT [6]: 22.58 ± 8.92 h | Vd [6]: 74.73 ± 25.05 L/kg | Half-life [6]: 19.68 (2.79) h | Tmax [6]: 2.00 (0.50) h | AUC0–24 (after CTS 20 mg/kg p.o., Day 1): 2844 ± 315 ng·h/mL | AUC0–inf (after CTS 20 mg/kg p.o., Day 1): 5664 ± 385 ng·h/mL | CL (after CTS 20 mg/kg p.o., Day 1): 9.67 ± 4.17 mL/min/kg | Cmax (after CTS 20 mg/kg p.o., Day 1): 339.17 ± 58.20 ng/mL | MRT (after CTS 20 mg/kg p.o., Day 1): 63.30 ± 11.60 h | Vd (after CTS 20 mg/kg p.o., Day 1): 81.70 ± 5.20 L/kg | Half-life (after CTS 20 mg/kg p.o., Day 1): 19.55 (6.20) h | Tmax (after CTS 20 mg/kg p.o., Day 1): 2.00 (0.00) h | AUC0–24 (after CTS 20 mg/kg p.o., Day 7): 3364 ± 449 ng·h/mL | AUC0–inf (after CTS 20 mg/kg p.o., Day 7): 5997 ± 458 ng·h/mL | CL (after CTS 20 mg/kg p.o., Day 7): 15.7 ± 8.67 mL/min/kg | Cmax (after CTS 20 mg/kg p.o., Day 7): 354.23 ± 69.57 ng/mL | MRT (after CTS 20 mg/kg p.o., Day 7): 58.33 ± 18.58 h | Vd (after CTS 20 mg/kg p.o., Day 7): 62.60 ± 14.01 L/kg | Half-life (after CTS 20 mg/kg p.o., Day 7): 23.13 (14.37) h | Tmax (after CTS 20 mg/kg p.o., Day 7): 1.50 (1.00) h
